The record followed here is paper PMC7839768 (Chemistry (Weinheim an Der Bergstrasse, Germany), 2020).

Protein sequences, listed by entry. Tags and fused reporters are not part of them. Residues count along the entry.
UniProt P09382, 2-135: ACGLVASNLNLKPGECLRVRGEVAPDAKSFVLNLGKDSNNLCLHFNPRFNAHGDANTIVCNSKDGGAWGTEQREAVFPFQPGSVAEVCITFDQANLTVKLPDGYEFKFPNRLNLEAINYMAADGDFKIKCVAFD

The target of this assay is hGal-1 (Homo sapiens, UniProt P09382). Put plainly: ITC. In kind it is binding.

Broadly, the Kd is the free concentration of one partner at which half of the binding sites on the other are occupied at equilibrium, for simple one-to-one binding. A lower Kd goes with a tighter complex.

`OC[C@H]1O[C@@H](S[C@@H]2O[C@H](CO)[C@H](O)[C@H](O)[C@H]2O)[C@H](O)[C@@H](O)[C@H]1O` [TDG] returned a Kd of 82.7 ± 2.9 µM.
